Test results: US20070160574A1, “Design of CXC chemokine analogs for the treatment of human diseases” (priority 2000, published 2007)

Key:
[1] = molecular target: T1, CXCR3 receptor (CXCR-3/300-19 cells) (Homo sapiens, UniProt P49682); experiment: [Ca2+]i mobilization by IP-10 analogs, FLIPR Calcium 3 kit, CXCR-3/300-19 cells; format: cell-based; conditions: for calcium mobilization activity of the cells: CXCR-3/300-19 cells
T1 construct: expressed in transfected cells; host or cells: 300-19 mouse pre-B lymphocytes (CXCR-3/300-19)
T1 sequence (P49682 1-368): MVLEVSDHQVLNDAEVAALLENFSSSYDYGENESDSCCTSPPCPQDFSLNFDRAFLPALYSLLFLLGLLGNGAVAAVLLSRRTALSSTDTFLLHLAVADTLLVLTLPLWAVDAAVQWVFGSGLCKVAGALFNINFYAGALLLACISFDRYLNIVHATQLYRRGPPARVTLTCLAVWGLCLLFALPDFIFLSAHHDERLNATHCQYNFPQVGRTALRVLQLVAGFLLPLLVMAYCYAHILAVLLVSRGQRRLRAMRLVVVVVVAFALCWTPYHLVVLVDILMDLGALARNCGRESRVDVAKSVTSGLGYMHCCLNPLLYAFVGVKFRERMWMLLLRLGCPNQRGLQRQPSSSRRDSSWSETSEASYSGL
Protocol: Binding and Calcium Mobilization: Suspensions of CXCR-3/300-19 cells were used to assess binding and intracellular calcium mobilization induced by IP-10 analogs. These are mouse pre-B lymphocytes transfected with the CXCR3 receptor, (Moser, et al). The cells were washed in RPMI media and resuspended in RPMI media supplemented with 10% FCS, then plated at 1.2×10^5 cells per well of 96-well black wall/clear bottom plates coated with poly-D-lysine (Becton Dickinson) and loaded with 100 uL fluorescent calcium indicator FLIPR Calcium 3 assay kit component A (Molecular Probes) for 1 hr at 37° C. The cells on the plates were then spun at 1000 rpm for 15 minutes at room temperature.
Each of the sequences successfully bound to the cellular receptors. The intracellular calcium mobilization in response to 25 uL (0-100000 nM final concentrations) of the appropriate and various concentrations of analogue was measured at 37° C. by monitoring fluorescence as a function of time in all the wells using the Flexstation Fluorometric Imaging Plate Reader (Molecular Devices). All analogues were run simultaneously with rhIP-10 (R&D Systems) as the standard. Table 7 provides the dosage effect of the binding of each of the IP-10 analogs on the calcium mobilization activity of the cells.

[2] = test system: IL-8 receptor (differentiated HL-60 cells); experiment: Calcium mobilization in differentiated HL-60 cells, Fluo-4/AM; format: cell-based; conditions: over control wells (plain medium = 1.0), about 10 to 200 μg/ml
Protocol: The HL-60 cells are cultured as described above, harvested and suspended in Tyrode's salt solution at a density of about 2×10^6 cells/ml. The Tyrode's salt solution contains about 137 mM NaCl, 2.7 mM KCl, 1 mM MgCl2, 1 mM CaCl2, 0.2 mM NaH2PO4, 12 mM NaHCO3, and 5.5 mM glucose.
The cells are labeled with 4 μM of Fluo-4/AM (Molecular Probes, Inc.) for 45 minutes at 37° C. to measure calcium mobilization from cells. The label is a dye that fluoresces when bound to calcium. […] An increase in fluorescence indicates an increase in calcium mobilization. The cells are washed three times with the Tyrode's salt solution after labeling and re-suspended at 5×10^6 cells/ml.
Changes in the level of cellular fluorescence are read in a Thermo Labsystems Fluorskan Acsent fluorescence plate reader (VWR Scientific Prod's). The controls include cells treated with either the native chemokine or the plain medium of Tyrode's Salt Solution. Data is expressed using 1.0 as the standard level of fluorescence in the plain medium. The reported values represent the mean of at least duplicate measurements from wells in one or more experiments.

Row | SMILES | Average fold increase in calcium mobilization [2] | other results
1 | CC(C)C[C@H](NC(=O)[C@H](Cc1ccccc1)NC(=O)[C@H](CCCCN)NC(=O)[C@H](CCC(=O)O)NC(=O)[C@@H](NC(=O)[C@@H](NC(=O)[C@H](CCCNC(=N)N)NC(=O)[C@H](CCC(N)=O)NC(=O)[C@@H](NC(=O)[C@H](Cc1c[nH]c2ccccc12)NC(=O)[C@@H](N)CC(N)=O)C(C)C)C(C)C)C(C)C)C(=O)N[C@@H](CCCCN)C(=O)N[C@@H](CCCNC(=N)N)C(=O)N[C@@H](C)C(=O)N[C@@H](CCC(=O)O)C(=O)N[C@@H](CC(N)=O)C(N)=O [SEQ ID NO:1642] | – | effect on intracellular calcium mobilization (in words) ([1]; FIG. 1, 100 μM, comparison between analogs): decreased the calcium mobilization dramatically; calcium mobilization activity of the cells ([1]; dosage 1.2 μM): 15.2%; calcium mobilization activity of the cells ([1]; dosage 3.7 μM): 13.8%; calcium mobilization activity of the cells ([1]; dosage 11.1 μM): 15.4%; calcium mobilization activity of the cells ([1]; dosage 33.3 μM): 20%; calcium mobilization activity of the cells ([1]; dosage 100 μM): 3.1%
2 | CC[C@H](C)[C@H](NC(=O)[C@H](Cc1c[nH]c2ccccc12)NC(=O)[C@H](CCC(N)=O)NC(=O)[C@H](Cc1ccc(O)cc1)NC(=O)[C@H](CCCNC(=N)N)NC(=O)[C@H](CC(C)C)NC(=O)[C@H](CCC(=O)O)NC(=O)[C@H](CCCCN)NC(=O)[C@H](C)NC(=O)[C@H](CO)NC(C)=O)C(=O)N[C@@H](CCCCN)C(=O)N[C@H](C(=O)N[C@@H](Cc1ccc(O)cc1)C(=O)N[C@@H](CO)C(=O)N[C@@H](CCCCN)C(=O)NCCCCCCCCCCC(=O)N[C@@H](CC(N)=O)C(=O)N[C@@H](Cc1c[nH]c2ccccc12)C(=O)N[C@H](C(=O)N[C@@H](CCC(N)=O)C(=O)N[C@@H](CCCNC(=N)N)C(=O)N[C@H](C(=O)N[C@H](C(=O)N[C@@H](CCC(=O)O)C(=O)N[C@@H](CCCCN)C(=O)N[C@@H](Cc1ccccc1)C(=O)N[C@@H](CC(C)C)C(=O)N[C@@H](CCCCN)C(=O)N[C@@H](CCCNC(=N)N)C(=O)N[C@@H](C)C(=O)N[C@@H](CCC(=O)O)C(=O)N[C@@H](CC(N)=O)C(N)=O)C(C)C)C(C)C)C(C)C)[C@@H](C)O [SEQ ID NO:1670] | 65.4 | –
3 | CC[C@H](C)[C@H](NC(=O)[C@H](Cc1ccccc1)NC(=O)[C@H](CCC(N)=O)NC(=O)[C@H](C)NC(=O)[C@H](CCCNC(=N)N)NC(=O)[C@H](CC(C)C)NC(=O)[C@H](CCC(=O)O)NC(=O)[C@H](CCCCN)NC(=O)[C@H](C)NC(=O)[C@H](CO)NC(C)=O)C(=O)N[C@@H](CCCNC(=N)N)C(=O)N[C@H](C(=O)N[C@@H](Cc1ccc(O)cc1)C(=O)N[C@@H](CO)C(=O)N[C@@H](CCCCN)C(=O)NCCCCCCCCCCC(=O)N[C@@H](CC(N)=O)C(=O)N[C@@H](Cc1c[nH]c2ccccc12)C(=O)N[C@H](C(=O)N[C@@H](CCC(N)=O)C(=O)N[C@@H](CCCNC(=N)N)C(=O)N[C@H](C(=O)N[C@H](C(=O)N[C@@H](CCC(=O)O)C(=O)N[C@@H](CCCCN)C(=O)N[C@@H](Cc1ccccc1)C(=O)N[C@@H](CC(C)C)C(=O)N[C@@H](CCCCN)C(=O)N[C@@H](CCCNC(=N)N)C(=O)N[C@@H](C)C(=O)N[C@@H](CCC(=O)O)C(=O)N[C@@H](CC(N)=O)C(N)=O)C(C)C)C(C)C)C(C)C)[C@@H](C)O [SEQ ID NO:1671] | 134.8 | –
4 | CC[C@H](C)[C@H](NC(=O)[C@H](Cc1c[nH]c2ccccc12)NC(=O)[C@H](CCC(N)=O)NC(=O)[C@H](Cc1ccc(O)cc1)NC(=O)[C@H](CCCNC(=N)N)NC(=O)[C@H](CC(C)C)NC(=O)[C@H](CCC(=O)O)NC(=O)[C@H](CCCCN)NC(=O)[C@H](C)NC(=O)[C@H](CO)NC(C)=O)C(=O)N[C@@H](CCCNC(=N)N)C(=O)N[C@H](C(=O)N[C@@H](Cc1ccc(O)cc1)C(=O)N[C@@H](CO)C(=O)N[C@@H](CCCCN)C(=O)NCCCCCCCCCCC(=O)N[C@@H](CC(N)=O)C(=O)N[C@@H](Cc1c[nH]c2ccccc12)C(=O)N[C@H](C(=O)N[C@@H](CCC(N)=O)C(=O)N[C@@H](CCCNC(=N)N)C(=O)N[C@H](C(=O)N[C@H](C(=O)N[C@@H](CCC(=O)O)C(=O)N[C@@H](CCCCN)C(=O)N[C@@H](Cc1ccccc1)C(=O)N[C@@H](CC(C)C)C(=O)N[C@@H](CCCCN)C(=O)N[C@@H](CCCNC(=N)N)C(=O)N[C@@H](C)C(=O)N[C@@H](CCC(=O)O)C(=O)N[C@@H](CC(N)=O)C(N)=O)C(C)C)C(C)C)C(C)C)[C@@H](C)O [SEQ ID NO:1672] | 13.4 | –
5 | CC[C@H](C)[C@H](NC(=O)[C@H](Cc1c[nH]c2ccccc12)NC(=O)[C@H](CCC(N)=O)NC(=O)[C@H](Cc1ccc(O)cc1)NC(=O)[C@H](CCCNC(=N)N)NC(=O)[C@H](CC(C)C)NC(=O)[C@H](CCC(=O)O)NC(=O)[C@H](CCCCN)NC(=O)[C@H](C)NC(=O)[C@H](CO)NC(C)=O)C(=O)N[C@@H](CCCNC(=N)N)C(=O)N[C@H](C(=O)N[C@@H](Cc1ccc(O)cc1)C(=O)N[C@@H](CO)C(=O)N[C@@H](CCCNC(=N)N)C(=O)NCCCCCCCCCCC(=O)N[C@@H](CC(N)=O)C(=O)N[C@@H](Cc1c[nH]c2ccccc12)C(=O)N[C@H](C(=O)N[C@@H](CCC(N)=O)C(=O)N[C@@H](CCCNC(=N)N)C(=O)N[C@H](C(=O)N[C@H](C(=O)N[C@@H](CCC(=O)O)C(=O)N[C@@H](CCCCN)C(=O)N[C@@H](Cc1ccccc1)C(=O)N[C@@H](CC(C)C)C(=O)N[C@@H](CCCCN)C(=O)N[C@@H](CCCNC(=N)N)C(=O)N[C@@H](C)C(=O)N[C@@H](CCC(=O)O)C(=O)N[C@@H](CC(N)=O)C(N)=O)C(C)C)C(C)C)C(C)C)[C@@H](C)O [SEQ ID NO:1673] | 5.7 | –
6 | CC[C@H](C)[C@H](NC(=O)[C@H](Cc1c[nH]c2ccccc12)NC(=O)[C@H](CCC(N)=O)NC(=O)[C@H](Cc1c[nH]c2ccccc12)NC(=O)[C@H](CCCNC(=N)N)NC(=O)[C@H](CC(C)C)NC(=O)[C@H](CCC(=O)O)NC(=O)[C@H](CCCCN)NC(=O)[C@H](C)NC(=O)[C@H](CO)NC(C)=O)C(=O)N[C@@H](CCCNC(=N)N)C(=O)N[C@H](C(=O)N[C@@H](Cc1ccc(O)cc1)C(=O)N[C@@H](CO)C(=O)N[C@@H](CCCNC(=N)N)C(=O)NCCCCCCCCCCC(=O)N[C@@H](CC(N)=O)C(=O)N[C@@H](Cc1c[nH]c2ccccc12)C(=O)N[C@H](C(=O)N[C@@H](CCC(N)=O)C(=O)N[C@@H](CCCNC(=N)N)C(=O)N[C@H](C(=O)N[C@H](C(=O)N[C@@H](CCC(=O)O)C(=O)N[C@@H](CCCCN)C(=O)N[C@@H](Cc1ccccc1)C(=O)N[C@@H](CC(C)C)C(=O)N[C@@H](CCCCN)C(=O)N[C@@H](CCCNC(=N)N)C(=O)N[C@@H](C)C(=O)N[C@@H](CCC(=O)O)C(=O)N[C@@H](CC(N)=O)C(N)=O)C(C)C)C(C)C)C(C)C)[C@@H](C)O [SEQ ID NO:1674] | 1.4 | –
7 | CC[C@H](C)[C@H](NC(=O)[C@H](Cc1c[nH]c2ccccc12)NC(=O)[C@H](CCC(N)=O)NC(=O)[C@H](Cc1c[nH]cn1)NC(=O)[C@H](CCCNC(=N)N)NC(=O)[C@H](CC(C)C)NC(=O)[C@H](CCC(=O)O)NC(=O)[C@H](CCCCN)NC(=O)[C@H](C)NC(=O)[C@H](CO)NC(C)=O)C(=O)N[C@@H](CCCNC(=N)N)C(=O)N[C@H](C(=O)N[C@@H](Cc1ccc(O)cc1)C(=O)N[C@@H](CO)C(=O)N[C@@H](CCCNC(=N)N)C(=O)NCCCCCCCCCCC(=O)N[C@@H](CC(N)=O)C(=O)N[C@@H](Cc1c[nH]c2ccccc12)C(=O)N[C@H](C(=O)N[C@@H](CCC(N)=O)C(=O)N[C@@H](CCCNC(=N)N)C(=O)N[C@H](C(=O)N[C@H](C(=O)N[C@@H](CCC(=O)O)C(=O)N[C@@H](CCCCN)C(=O)N[C@@H](Cc1ccccc1)C(=O)N[C@@H](CC(C)C)C(=O)N[C@@H](CCCCN)C(=O)N[C@@H](CCCNC(=N)N)C(=O)N[C@@H](C)C(=O)N[C@@H](CCC(=O)O)C(=O)N[C@@H](CC(N)=O)C(N)=O)C(C)C)C(C)C)C(C)C)[C@@H](C)O [SEQ ID NO:1675] | 12.2 | –
